# Data taken from PubChem BioAssay AID652083 (The Scripps Research Institute Molecular Screening Center, 2013).
# The other results are listed elsewhere or left out. Active and inactive are the calls of the source.
# System: Cl# channel (GABA-gated)
# Test: PubChem AID 652083
# Conditions: CEREP radioligand binding panel, % inhibition at 10 uM, hits give high values
structure (smiles),measurement,value
COC(=O)c1cc(Br)cnc1N1CCC(NC2CCCCC2)C(O)C1 (stereo unspecified),inhibition of specific binding,inactive: 6%
